According to patent publication US20180112258A1, “MEDICAL USES AND METHODS FOR TREATING CANCER USING MONOPOLAR SPINDLE 1 (MPS1) KINASE INHIBITORS” (THE INSTITUTE OF CANCER RESEARCH: ROYAL CANCER HOSPITAL, priority 2015, published 2018):

Legend:
[1] = test system: DLD1 Flp-In T-Rex cells expressing wild-type MPS1; settings: over-expression of wild-type MPS1
[2] = test system: HCT116 cells containing MPS1 p.M600T; assay: Cell viability assay, HCT116 NvR clones with MPS1 p.M600T (NvR1 etc.)
[3] = test system: HCT116 cells containing MPS1 p.C604W; assay: Cell viability assay, HCT116 NvR clones with MPS1 p.C604W (NvR12 etc.)
[4] = target: T1, recombinant full-length MPS1 p.C604W (Homo sapiens, UniProt P33981, C604W); assay: Recombinant MPS1 kinase assay (electrophoretic mobility shift), p.C604W; format: biochemical; settings: in vitro (Table 2)
T1 construct: made in house; host or cells: Sf9 insect cells (baculovirus, modified pFastBac1)
T1 sequence (P33981 1-857 C604W): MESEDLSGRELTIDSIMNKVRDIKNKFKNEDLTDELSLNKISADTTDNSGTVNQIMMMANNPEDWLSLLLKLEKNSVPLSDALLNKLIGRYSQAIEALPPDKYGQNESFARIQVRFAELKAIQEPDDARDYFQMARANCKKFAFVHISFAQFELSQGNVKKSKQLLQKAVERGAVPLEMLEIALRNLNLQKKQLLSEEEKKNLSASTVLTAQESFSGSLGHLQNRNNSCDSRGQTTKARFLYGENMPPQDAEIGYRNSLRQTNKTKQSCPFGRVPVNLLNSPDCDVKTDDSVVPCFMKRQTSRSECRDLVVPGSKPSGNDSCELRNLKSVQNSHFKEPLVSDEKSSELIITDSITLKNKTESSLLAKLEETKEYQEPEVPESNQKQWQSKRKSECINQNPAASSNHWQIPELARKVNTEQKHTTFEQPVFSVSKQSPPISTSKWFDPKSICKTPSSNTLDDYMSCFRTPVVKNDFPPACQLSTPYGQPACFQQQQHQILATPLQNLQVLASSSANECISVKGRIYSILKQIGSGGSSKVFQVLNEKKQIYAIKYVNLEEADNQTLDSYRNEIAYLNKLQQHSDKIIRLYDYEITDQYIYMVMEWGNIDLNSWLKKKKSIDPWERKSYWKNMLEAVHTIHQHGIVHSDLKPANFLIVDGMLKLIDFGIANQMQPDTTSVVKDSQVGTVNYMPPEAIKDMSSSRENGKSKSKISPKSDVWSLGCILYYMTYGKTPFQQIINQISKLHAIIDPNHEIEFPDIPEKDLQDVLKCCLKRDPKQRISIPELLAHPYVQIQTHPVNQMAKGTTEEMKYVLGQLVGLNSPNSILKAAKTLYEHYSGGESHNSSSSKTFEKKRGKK
Procedure: For high ATP concentration assays, 1 mM ATP was used. An ECHO® 550 (Labcyte Inc) acoustic dispenser was used to generate duplicate 8 point dilution curves directly into 384-well low-volume polystyrene assay plates (Corning Life Sciences). The reaction was carried out for 90 min at room temperature.

| fold more active against recombinant p.C604W than wild-type protein [4] | Compound | resistance conferred by construct in viability assay [1] | Resistance conferred by mutation p.M600T [2] | resistance in cell viability assay vs parental [2] | Resistance conferred by mutation p.C604W [3] | fold resistance in cell viability assay vs parental [2] | resistance / potency in cell viability assay vs parental ([3]; p.C604W (NvR12)) | fold more effective towards NvR12 than parental HCT116 cells ([3]; p.C604W (NvR12), 4-day cell viability assay) |
| --- | --- | --- | --- | --- | --- | --- | --- | --- |
| – | COc1cc(OC2CCN(C)CC2)ccc1Nc1ncc2c(n1)n(C1CCCC1)c(=O)n2C [AZ3146] | unable to confer resistance | R | able to confer resistance | R | – | – | – |
| approximately 5 fold | Cc1ncc(-c2ccc(Nc3cc4c(cn3)cc(-c3cnn(C)c3)n4C(=O)OC(C)C)cc2)n1C [Compound 2, Isopropyl 6-(4-(1,2-dimethyl-1H-imidazol-5-yl)-2-phenylamino)-2-(1-methyl-1H-pyrazol-4-yl)-1H-pyrrolo[3,2-c]pyridine-1-carboxylate] | – | R | – | – | ~2 fold | more potent | 5 fold |
